## Reported vapor pressure values for industrial, environmental and drug-like chemicals

Values as listed in the OPERA 2.9 repository of K. Mansouri.

Vapor pressures (log10 mmHg) refer to near room temperature, 15 to 30 °C; higher is more volatile.
"–" marks a cell with nothing listed here.
The databases behind each value are named after "via".

| compound | name | vapor pressure (log10 mmHg) | via |
|---|---|---|---|
| CC1=CC(=O)N(Cc2cccc(CN3C(=O)C=C(C)C3=O)c2)C1=O | – | -6.426 | eChemPortal |
| COC(Cc1ccccc1)OC | Phenylacetaldehyde dimethyl acetal | 0.272 | eChemPortal |
| NCc1ccc(CN)cc1 | 1,4-Benzenedimethanamine | -2.699 | eChemPortal |
| CN(CCCN)CCCN | N,N-Bis(3-aminopropyl)methylamine | -1.523 | eChemPortal |
| CCC(C)(C)c1cc(O)c(C(C)(C)CC)cc1O | 2,5-Bis(2-methylbutan-2-yl)benzene-1,4-diol | -6.247 | eChemPortal |
| CC(=O)CO | Hydroxyacetone | 0.772 | eChemPortal |
| C=CC(F)(F)C(F)(F)C(F)(F)C(F)(F)F | 3,3,4,4,5,5,6,6,6-Nonafluorohexene | 2.297 | PubChem, eChemPortal |
| O=C(CCS)OCCn1c(=O)n(CCOC(=O)CCS)c(=O)n(CCOC(=O)CCS)c1=O | – | -6.116 | eChemPortal |
| COc1ccc(N2CCN(c3ccc(-n4cn[nH]c4=O)cc3)CC2)cc1 | – | -7.992 | eChemPortal |
| C=C(C)CS(=O)(=O)[O-].[Na+] | Sodium 2-methylprop-2-ene-1-sulfonate | -9.966 | eChemPortal |
| OCC(Br)=C(Br)CO | 2,3-Dibromo-2-butene-1,4-diol | -4.288 | eChemPortal |
| CCCCCCCCCCCCCCCCCCNC(=O)CCc1cc(C(C)(C)C)c(O)c(C(C)(C)C)c1 | – | -6.312 | eChemPortal |
| C=CCCCCC=C | 1,7-Octadiene | 1.202 | eChemPortal |
| COC(=O)C(F)(F)C(F)(F)C(F)(F)OC(F)=C(F)F | Methyl 4-trifluoroethenoxy-2,2,3,3,4,4-hexafluorobutanoate | 0.947 | eChemPortal |
| CC(=O)OCCC1=CC[C@H]2C[C@@H]1C2(C)C | Nopyl acetate, (-)- | -1.853 | eChemPortal |
| COc1cc(C)cc(OC)c1OC | 3,4,5-Trimethoxytoluene | -2.21 | eChemPortal |
| CC1=CC(=O)C(C(C)C)CC1 (centres undefined) | Piperitone | -1.151 | eChemPortal |
| CC(C)CCCCCCCCCCOC(=O)CC(C)CC(C)(C)C (centres undefined) | Hexanoic acid, 3,5,5-trimethyl-, isotridecyl ester | -4.997 | eChemPortal |
| CC(C)(C)CCCCC(=O)O | Neononanoic acid | -1.604 | eChemPortal |
| C[C@]12CCC(=O)C=C1C=C[C@@H]1[C@@H]2CC[C@@]2(C)[C@H]1CC[C@@]21CCC(=O)O1 | Canrenone | -12.45 | eChemPortal |
| CN(C)C(=N)N(C)C | Guanidine, N,N,N',N'-tetramethyl- | 0.402 | eChemPortal |
| Cc1ccc(-c2ccc(B(O)O)c(F)c2)cc1 | (4'-Methyl-3-fluoro[1,1'-biphenyl]-4-yl)-boronic acid | -5.262 | eChemPortal |
| CCCCOc1ccc(-c2ccc(-c3ccc(CC)cc3)c(F)c2)c(F)c1F | – | -7.292 | eChemPortal |
| CC=CCCC | – | 2.176 | OCHEM |
| CN(C)CCCNC1CC(C)(C)NC(C)(C)C1 | – | -2.426 | eChemPortal |
| CCC1CC2CC1CC2OC (centres undefined) | 2-Ethyl-5-methoxybicyclo[2.2.1]heptane | 0.039 | eChemPortal |
| CC(=O)OCC1CCC=C(CCC=C(C)C)C1 (centres undefined) | 3(or 4)-(4-Methylpenten-3-yl)cyclohex-3-ene-1-methyl acetate | -3.348 | eChemPortal |
| CCO[Si](=O)O | Silicic acid, ethyl ester | 0 | eChemPortal |
| CCCCCCCCCCCCCCCCCCOCCCN(C)C | Stearoxypropyl dimethylamine | -6.87 | eChemPortal |
| CC(O)CN(CCCN(C)C)CCCN(C)C (centres undefined) | 1-{Bis[3-(dimethylamino)propyl]amino}propan-2-ol | -1.894 | eChemPortal |
| C=C(C)C(=O)OCC(C)O (centres undefined) | 2-Hydroxypropyl 2-methylacrylate | -1.143 | OCHEM |
| Cc1cnn(C)c1 | 1,4-Dimethylpyrazole | 0.4 | eChemPortal |
| C#CC1(C)CCCC(C)(C)O1 (centres undefined) | 2H-Pyran, 2-ethynyltetrahydro-2,6,6-trimethyl- | 0.44 | eChemPortal |

Excerpt, the opening 3 entries:

| compound | name | vapor pressure (log10 mmHg) | via |
|---|---|---|---|
| CC1=CC(=O)N(Cc2cccc(CN3C(=O)C=C(C)C3=O)c2)C1=O | – | -6.426 | eChemPortal |
| COC(Cc1ccccc1)OC | Phenylacetaldehyde dimethyl acetal | 0.272 | eChemPortal |
| NCc1ccc(CN)cc1 | 1,4-Benzenedimethanamine | -2.699 | eChemPortal |

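These are experimental values that the OPERA curators gathered from public databases to train and test their QSAR models. A listed value is a point estimate from one report or more. Conditions of the individual experiments are not part of the data. Where a salt, mixture or single isomer is drawn, the source does not say that exactly this form was tested. Unmarked limits or estimates from the upstream databases cannot be ruled out.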